Assay: hygroscopicity of the crystals
[1] = hydrochloride, compound free of crystal water

| SMILES | hygroscopicity (hydrochloride hemihydrate) | hygroscopicity [1] |
| --- | --- | --- |
| CN(C(=O)Cc1cc(Cl)c(Cl)s1)[C@@H]1CCCC[C@H]1N1CCCC1.Cl (relative stereo) | non-hygroscopic | hygroscopic |
| CN(C(=O)Cc1cc(Cl)sc1Cl)[C@@H]1CCCC[C@H]1N1CCCC1.Cl (relative stereo) |  | non-hygroscopic |
| CN(C(=O)Cc1ccc(Cl)s1)[C@@H]1CCCC[C@H]1N1CCCC1.Cl (relative stereo) |  | non-hygroscopic |

Reference: patent US4499286A, “Derivatives of thienylacetic acid amides and their pharmaceutically acceptable acid salts and a process for the preparation thereof” (dated 1985)
